Experimental data from US9459246B2, “Induced intercellular communication” (Nodality, Inc., priority 2009, dated 2016).

Test system: PBMCs
Assay: SCNP of immunomodulator signaling nodes in PBMC subpopulations of 60 healthy donors (Example 16)
Format: cell-based, human
Conditions: 50 ng/ml, 15 min
Method: Cryopreserved PBMC samples were thawed at 37° C. and resuspended in RPMI 1% FBS before staining with amine aqua viability dye (Invitrogen, Carlsbad, Calif.). Cells were resuspended in RPMI 10% FBS, aliquoted to 100,000 cells per well of 96-well plates, and rested for 2 h at 37° C. prior to 15 min 37° C. incubation with the following modulators: 1000 IU/ml IFNα (PBL, Piscataqay, N.J.); 250 ng/ml IFNγ, 50 ng/ml IL4, 50 ng/ml IL10, α-IgD 5 m/ml (BD, San Jose, Calif.); 50 ng/ml IL2, 50 ng/ml IL6, 50 ng/ml IL27, CD40L 0.5 μg/ml (R&D, Minneapolis, Minn.); R848 5 μg/ml (Invivogen, San Diego, Calif.); LPS 1 μg/ml, PMA 40 nM (Sigma Aldrich, St. Louis, Mo.). […]
Flow cytometry data was acquired using FACS DIVA software (BD, San Jose, Calif.) on two LSRII Flow Cytometers (BD, San Jose, Calif.). All flow cytometry data were analyzed with WinList (Verity House Software, Topsham, Me.). […]
The term “signaling node” can refer to a specific protein readout in the presence or absence of a specific modulator. For example, a response to IFNα stimulation can be measured using pStat1 as a readout. […] Each signaling node can be measured in each cell subpopulation. […] The Equivalent Number of Reference Fluorophores (ERFs), fluorescence measurements calibrated by rainbow calibration particles on each 96-well plate, serve as a basis for all metric calculations (6, 7).

Substance: IL2: cytokine used as modulator
- pStat5 activation by cell type: led to pStat5 activation primarily in CD3-CD20-lymphocytes and T cells
